{
  "sequences": {"note": "By UniProt entry, the sequences of proteins in these tests, tags left out.", "UniProt P11511, whole entry": "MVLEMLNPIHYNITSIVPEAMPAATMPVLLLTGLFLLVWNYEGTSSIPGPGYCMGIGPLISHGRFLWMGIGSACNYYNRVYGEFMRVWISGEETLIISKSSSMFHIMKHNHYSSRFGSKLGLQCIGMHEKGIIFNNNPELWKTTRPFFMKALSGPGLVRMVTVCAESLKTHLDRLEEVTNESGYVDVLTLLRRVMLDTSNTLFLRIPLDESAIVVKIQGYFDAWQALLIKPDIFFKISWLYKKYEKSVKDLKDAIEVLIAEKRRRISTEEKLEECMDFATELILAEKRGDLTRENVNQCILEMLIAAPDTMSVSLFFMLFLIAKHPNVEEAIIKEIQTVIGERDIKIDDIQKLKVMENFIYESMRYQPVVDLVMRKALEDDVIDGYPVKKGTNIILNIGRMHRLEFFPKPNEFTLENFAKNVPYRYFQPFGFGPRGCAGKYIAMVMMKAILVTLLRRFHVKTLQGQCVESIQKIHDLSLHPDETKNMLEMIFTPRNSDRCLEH"},
  "source": "patent US8361996B2",
  "about": "“Imidazolyl substituted steroidal and indan-1-one derivatives” (Council of Scientific and Industrial Research, priority 2005, dated 2013)",
  "molecular_target": "aromatase (CYP19) (Homo sapiens, UniProt P11511)",
  "settings": "human placental microsomes and [1β,2β-3H] testosterone",
  "data": [
    {"smiles": "COc1cc(/C=C2\\C[C@H]3[C@@H]4CCC5=CC(=O)CC[C@]5(C)[C@H]4CC[C@]3(C)C2=O)ccc1OCCCn1ccnc1", "values": [
      {"measurement": "aromatase inhibitory activity (in words)", "value": "significant aromatase inhibitory activity"}
    ]}
  ]
}
